Key:
P-Selectin = target: T1, P-Selectin (Homo sapiens, UniProt P16109); assay: ELISA inhibition of recombinant P-selectin binding to immobilized SLe^x; conditions: mean of 3 determinations, read-out: IC50 Values Against SLe^x, P-Selectin
T1 sequence (P16109 42-830): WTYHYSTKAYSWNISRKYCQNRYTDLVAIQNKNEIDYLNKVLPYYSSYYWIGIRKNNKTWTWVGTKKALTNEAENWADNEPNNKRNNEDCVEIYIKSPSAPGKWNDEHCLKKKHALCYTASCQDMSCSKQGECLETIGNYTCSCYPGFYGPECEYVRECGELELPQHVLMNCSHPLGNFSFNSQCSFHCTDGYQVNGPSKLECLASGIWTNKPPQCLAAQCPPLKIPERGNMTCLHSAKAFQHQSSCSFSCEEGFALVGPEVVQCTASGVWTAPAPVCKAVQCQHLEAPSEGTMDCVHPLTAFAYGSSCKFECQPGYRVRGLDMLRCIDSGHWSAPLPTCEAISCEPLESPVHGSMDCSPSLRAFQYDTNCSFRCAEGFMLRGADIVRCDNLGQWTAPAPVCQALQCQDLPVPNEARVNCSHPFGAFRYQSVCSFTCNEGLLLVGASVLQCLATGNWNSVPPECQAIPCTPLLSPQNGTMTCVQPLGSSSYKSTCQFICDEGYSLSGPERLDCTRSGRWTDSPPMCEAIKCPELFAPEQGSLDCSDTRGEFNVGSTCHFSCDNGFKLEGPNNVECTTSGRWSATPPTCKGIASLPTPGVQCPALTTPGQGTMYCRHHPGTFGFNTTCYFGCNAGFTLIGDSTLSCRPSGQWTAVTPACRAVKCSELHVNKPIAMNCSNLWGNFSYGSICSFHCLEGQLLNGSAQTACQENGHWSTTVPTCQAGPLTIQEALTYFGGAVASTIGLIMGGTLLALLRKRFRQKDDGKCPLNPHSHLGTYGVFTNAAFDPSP
Experimental: (§1) Relative Inhibitory Properties of Branched Chains Including Neu5Ac and/or GalNAcLe^x Against Recombinant Selectins Binding to Immobilized SLe^x
(§2) ELISA inhibition studies were done as previously reported conditions. Ic50 values against immobilized SLe^x are the mean values of 3 determinations and were calculated according to published methodology.

E-Selectin = target: T2, E-Selectin (Homo sapiens, UniProt P16581); assay: ELISA inhibition of recombinant E-selectin binding to immobilized SLe^x; conditions: mean of 3 determinations, read-out: IC50 Values Against SLe^x, E-Selectin
T2 sequence (P16581 22-610): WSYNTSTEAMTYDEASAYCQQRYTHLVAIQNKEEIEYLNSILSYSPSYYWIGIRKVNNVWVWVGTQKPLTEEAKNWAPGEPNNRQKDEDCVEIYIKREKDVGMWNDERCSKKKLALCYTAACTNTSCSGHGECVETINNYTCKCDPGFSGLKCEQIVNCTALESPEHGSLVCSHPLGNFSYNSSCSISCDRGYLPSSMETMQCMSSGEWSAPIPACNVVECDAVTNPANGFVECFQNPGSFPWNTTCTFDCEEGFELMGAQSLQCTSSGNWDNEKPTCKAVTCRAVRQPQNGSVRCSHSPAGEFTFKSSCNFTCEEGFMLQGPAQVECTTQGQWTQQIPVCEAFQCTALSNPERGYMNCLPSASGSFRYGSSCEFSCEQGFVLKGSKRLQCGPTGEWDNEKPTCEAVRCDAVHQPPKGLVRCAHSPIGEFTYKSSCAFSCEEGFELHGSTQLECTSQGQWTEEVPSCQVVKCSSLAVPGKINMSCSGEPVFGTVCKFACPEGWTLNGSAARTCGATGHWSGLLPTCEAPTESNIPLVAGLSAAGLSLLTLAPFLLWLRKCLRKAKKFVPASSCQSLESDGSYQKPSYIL
Experimental: as §1, §2

For sialyl Lewis^x [reference compound], which IC50 (P-Selectin) is on record?
Its IC50 is 520 µM.

What about the IC50 (E-Selectin) of the same substance?
The IC50 was 540 µM.

From US5972907A, “Synthetic core 2-like branched structures containing GalNAc-lewis^x and Neu5Acα2-3Galβ1-3GalNAc sequences as novel ligands for selectins” (Health Research, Inc., priority 1997, dated 1999)
